Source: ChEMBL document CHEMBL1126706, “Structure-activity relationship of N-[2-(dimethylamino)-6-[3-(5-methyl-4-phenyl-1H-imidazol-1-yl)propoxy] phenyl]-N'-pentylurea and analogues. Novel potent inhibitors of acyl-CoA:cholesterol O-acyltransferase with antiatherosclerotic activity” (J Med Chem, 1993)

Target: T1, Acyl-CoA:cholesterol acyltransferase (Oryctolagus cuniculus, UniProt Q95214)
T1 sequence (Q95214 whole entry): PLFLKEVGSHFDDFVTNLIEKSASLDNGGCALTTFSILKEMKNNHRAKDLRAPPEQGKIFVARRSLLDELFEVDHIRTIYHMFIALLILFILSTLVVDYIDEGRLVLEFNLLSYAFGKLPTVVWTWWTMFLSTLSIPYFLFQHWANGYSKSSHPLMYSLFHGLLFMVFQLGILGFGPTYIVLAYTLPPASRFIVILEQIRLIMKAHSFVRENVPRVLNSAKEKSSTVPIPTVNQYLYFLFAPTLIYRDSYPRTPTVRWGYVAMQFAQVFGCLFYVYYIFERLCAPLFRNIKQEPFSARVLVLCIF
Test: Tested for inhibition against acyl coenzyme A:cholesterol acyltransferase from rabbit aorta homogenate.
Type: tissue-based
Method in brief: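 Arterial enzyme: aortae of cholesterol-fed NZW rabbits homogenized in 154 mM potassium phosphate pH 7.4 with 2.4 mg/mL BSA, 300g 5 min supernatant. Endogenous cholesterol plus 5 μM [1-14C]oleoyl-CoA; compound preincubated 3 min at 37 °C, enzyme (8 mg protein/mL) added, 5 min reaction, stopped with chloroform/methanol 2:1. IC50 from triplicate tubes per concentration.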

IC50: 900 nM
Compound: CCCCCCCN(Cc1ccc(CC(C)(C)C)cc1)C(=O)Nc1ccc(F)cc1F [CL-277082]
